Measurements as given in patent publication US20250353898A1, “SERPIN PEPTIDE DERIVATIVES AND METHODS OF USING THE SAME” (priority 2022, published 2025).

Columns and labels:
[1] = test system: LPS induced neuroinflammation; assay: LPS induced neuroinflammatory model; type: in vivo, C57BL/6 mice
[2] = test system: TNFα; assay: TNFα secretion in IMG microglial cells after LPS (ELISA); type: cell-based; details: LPS 100 ng/ml, 24 hours
Experimental: In the NFκB reporter cells, the NFκB inducible Secreted Embryonic Alkaline Phosphatase (SEAP) was measured in the supernatant. TNFα secretion in the supernatant was measured via ELISA.
(§1) Various SERPIN peptide derivatives were screened in vitro for their ability to reduce TNFα and NFκB secretion via LRP-1 activation. The NFκB reporter cells (THP1-XBlue-MD2-CD14 cells) were treated with each peptide derivative at various concentrations, up to 100 μg/ml before being insulted with LPS (5 ng/ml) and incubated overnight. The NFκB inducible Secreted Embryonic Alkaline Phosphatase (SEAP) was measured in the supernatant and read for absorbance. IMG Microglial cells were treated with each peptide derivative at various concentrations, up to 100 μg/ml before LPS (100 ng/ml) stimulation for 24 hours. An ELISA was used to measure TNFα in the supernatant ([…]).

[3] = test system: TSLP; assay: polyI:C-induced TSLP production by SPINK7 knockout EPC2 cells (ELISA); type: cell-based, Human; details: 200 μg/ml, Poly I:C 5 μg/ml, 8 hours, SPINK7 KO EPC2 cells
[4] = test system: LRP1; assay: OVA mouse model of Eosinophilic Esophagitis, LRP1 in esophageal lysate (western blot); type: in vivo; details: OVA sensitized and challenged mice
[5] = test system: NFκB; assay: NFκB reporter assay (SEAP) in THP1-XBlue-MD2-CD14 cells after LPS; type: cell-based; details: LPS 5 ng/ml
Experimental: The NFκB inducible Secreted Embryonic Alkaline Phosphatase (SEAP) was measured in the supernatant and read for absorbance.
as §1

[6] = test system: IL-6; assay: IL-6 secretion in IMG microglial cells after LPS (ELISA); type: cell-based; details: LPS 100 ng/ml, 24 hours
[7] = test system: LC3II/I ratio; assay: Autophagy marker LC3II/I ratio in IMG microglial cells (western blot); type: cell-based; details: 100 μg/ml before LPS 100 ng/ml, 24 hours
[8] = test system: OVA induced allergic asthma; assay: OVA induced allergic asthma mouse model, lung homogenate; type: in vivo, mice; details: compared to vehicle treated animals, p<0.005
From the text: Infiltration of immune cells into the lung likely account for the increase in total protein levels in the lung.

[9] = test system: LRP1; assay: LRP1 protein expression in IMG microglial cells (western blot); type: cell-based; details: 100 μg/ml, LPS activated microglial cells

Question: With `CCCC[C@H](NC(=O)[C@H](CC(C)C)NC(=O)[C@H](Cc1ccccc1)NC(=O)[C@@H](NC(=O)[C@H](Cc1ccccc1)NC(=O)[C@@H]1CCCN1C(=O)[C@H](CCCCN)NC(=O)[C@H](CC(N)=O)NC(=O)[C@H](Cc1ccccc1)NC(=O)[C@H](CCCCN)NC(=O)[C@@H](NC(C)=O)C(C)C)C(C)C)C(=O)N[C@H](C(=O)N[C@@H](CCC(=O)O)C(=O)N[C@@H](CCC(N)=O)C(=O)N[C@@H](CC(N)=O)C(=O)N[C@H](C(=O)N[C@@H](CCCCN)C(N)=O)[C@@H](C)O)[C@@H](C)CC` [SP163M, Ac-VKFNKPFVFL[Nle]IEQNTK-NH2] as the molecule, how does the “IL-6 level in brain homogenate” value ([1]; 100 μg s.c. daily, Day 5, LEGENDplex panel) read?
Answer: Its value is “moderate levels”.

Question: What about the weight loss ([1]; 100 μg subcutaneously daily 1 hour after LPS 1 mg/kg i.p., 4 days) of the same molecule?
Answer: The weight loss was “not seen”.

Question: And the “EC50 TNFα” value [2]?
Answer: Its value is 125.9 µg/mL (≈ 59.8 µM).

Question: What about the “TSLP production in supernatant” value [3] of the same molecule?
Answer: Its value is “inhibited polyI:C-induced TSLP production”.

Question: And the “LRP1 protein expression in esophageal lysate” value [4]?
Answer: Its value is “increased levels of LRP1”.

Question: And the “EC50 NFκB” value [5]?
Answer: Its value is 41.51 µg/mL (≈ 19.7 µM).

Question: And the “EC50 IL-6” value [6]?
Answer: Its value is 134.5 µg/mL (≈ 63.8 µM).

Question: And the “autophagic flux (LC3II/I ratio)” value [7]?
Answer: Its value is “restored autophagic functioning to near baseline levels”.

Question: What about the “total protein levels in the lung” value [8] of the same molecule?
Answer: Its value is “significantly decreased”.

Question: And the LRP1 protein expression [9]?
Answer: The LRP1 protein expression was “increased LRP1 protein expression”.

In brackets after ≈: the same amount, converted by molar mass.
